AlphaSeq binding of Ab-14 light chain variants to a spike HR2 peptide

Values reported by Li et al. 2023, doi:10.1038/s41467-023-39022-2 (FLAb copy).

Antigen: PDVDLGDISGINAS, a 14-residue peptide of the SARS-CoV-2 spike HR2 region.

Each scFv is VH, a 15-residue (Gly4Ser)3 linker, VL, as in the parent Ab-14, and differs from it in the CDRs of the light chain only.
VH: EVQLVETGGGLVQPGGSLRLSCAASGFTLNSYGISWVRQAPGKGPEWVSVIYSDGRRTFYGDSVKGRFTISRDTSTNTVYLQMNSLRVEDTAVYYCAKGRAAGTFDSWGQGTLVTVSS
VL: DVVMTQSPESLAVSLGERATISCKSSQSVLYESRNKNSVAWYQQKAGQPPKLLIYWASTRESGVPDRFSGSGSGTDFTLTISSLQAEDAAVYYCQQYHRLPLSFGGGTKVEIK

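The starting antibody came from a phage panning campaign against this peptide. This is the validation round: designs drawn from the data on random variants, tested in the same kind of assay. Their group label is 14L_Ctrl (Ctrl: baseline library sampled from a position-specific scoring matrix, with some repeated check sequences). In AlphaSeq, yeast of one mating type display the scFv and yeast of the other type display the target. After mating in shaken culture at 30 °C for 16 h, diploids were selected and their barcode pairs sequenced. Each replicate has its own calibration line, from reference interactions of the BCL2 family. There are six technical replicates.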

Each variant is given by its three light chain CDRs, as the data file delimits them; those of the parent are KSSQSVLYESRNKNSVA, WASTRES, QQYHRLPLS.
Values are log10 of the apparent Kd in nM; lower means stronger binding.
Where no diploid with the target was found in that replicate, the entry reads "ND": below detection, most likely a poor binder, though not proof of it.
Background: pairings of all light chain designs with three empty control strains gave a value in 4% of cases (median 2.64, 5th percentile 1.59). Values in that range, when seen in few replicates, are hard to tell from nonspecific mating. For each scFv, signals with the empty controls are counted beside the result, with their mean in brackets.
The parent sequence was in this pool as ten entries: three were never detected, three once, and four in most replicates, with averages from 0.34 to 2.37.
Values of this round are not directly comparable with the first-round values of the same sequences.
The authors averaged sequences with at least three values out of six and counted those with two or fewer as poor binders.

CDR-L1,CDR-L2,CDR-L3,"log10 Kd, replicates",empty controls
KSSQSVLYESRNKNSVA,WASTRES,KQYHRLPLS,ND ND ND 2.24 ND ND,0 of 18
KSSQSVLYESRMKNSVA,FASTRES,YQYHRLPLS,ND ND ND ND ND ND,0 of 18
KSSQSVLYESRNKNSVA,AASTREV,QQYHRLPLS,0.54 0.70 0.47 0.60 0.64 0.49,0 of 18
KFSQSVLYESRNKNSVA,WASTRES,QDYHRLPLS,ND 1.71 2.22 ND 1.74 ND,0 of 18
KSSQSVLYESRNKNSVA,WASTRES,MQYHRLPLS,ND ND 2.92 ND ND ND,0 of 18
KSSQSVLYESRNKNSVA,SVSTRES,QQYHRLPLS,0.85 1.02 0.24 0.66 0.79 0.63,0 of 18
KGSQSELYESRNKNSVA,WASCRES,QQYHRLPLS,2.00 1.22 3.04 ND 1.46 3.89,2 of 18 (1.44)
KSSQSVLYESVNKNSVA,YASTRED,QQGHRLPLS,2.23 2.37 2.11 1.59 1.99 ND,1 of 18 (1.68)
KSSQSVLYESRNKNSVA,WSSTPES,QQYHRLPLS,ND ND ND ND ND ND,0 of 18
KSSQSILYESRNKPSVA,DAYTRES,QQYHRLPLS,0.80 0.32 0.43 0.36 0.32 0.47,0 of 18
YRSQSVLYGSRNKNSVA,EASTRES,QQYHCLPLS,ND ND ND ND ND ND,1 of 18 (1.05)
ASSQSVYYESRNKNSVA,WASTRES,QQYHRMPLS,1.85 ND ND ND ND ND,0 of 18
KSSQSVFYESRNKNSVA,NGSTRES,QQYHRLPLS,0.88 0.69 0.87 0.91 0.90 0.97,2 of 18 (3.26)
KFSQSVLYESRNKNSVA,RASTRES,QQYHRLHNS,ND 2.13 2.95 ND ND ND,0 of 18
KSSLSVEYESRNKNQVA,AASTRES,QQYHRLPLS,0.98 0.60 0.18 0.31 0.50 0.76,1 of 18 (2.74)
KSSQSVWYESRNKNSVA,DASTREA,QQYHTLVLS,ND ND ND ND ND ND,0 of 18
KSSQSVLYESRNLNSVA,HASTRES,QQYHRLPLS,0.82 0.49 0.80 0.26 0.84 0.75,1 of 18 (2.73)
KPSQSVLDESRNKNSVA,WASTRES,QQSGRLPLF,ND ND ND ND ND ND,0 of 18
KSSQSVLYEWRNKHSVA,WASTREP,QQYHRLPLS,ND ND ND ND ND ND,0 of 18
KSSQSGLYTSHNKNSVA,WASKRES,QQYHRLPLS,ND 3.07 1.98 2.89 ND 3.06,0 of 18
KSTQSVLYESRNKNSVA,EASTRES,QQYHRLPLS,0.09 0.10 0.12 0.13 0.46 0.08,0 of 18
KMSQPVLYESKHKNSVA,RASTRES,FQYQRLPLS,ND ND ND ND ND ND,0 of 18
KMSQSVMYESRNKNSVA,WADTRED,QQYHRLPLS,1.17 0.47 0.99 0.46 0.64 0.75,0 of 18
KSSQSVLYESRNKESVA,WASTRES,QQYARLPES,ND ND ND ND ND ND,0 of 18
KSSKSVLEESNNKNSVA,WASTRES,QQYHRLPLS,1.56 0.80 1.33 1.39 0.84 1.06,0 of 18
KSSQSVLYESRNKNSVA,WCSTRES,QQYHRLPLS,ND ND ND ND 1.56 ND,0 of 18
KISQSVLYESFNKNSVA,WASTRES,QQYHRLPLS,1.06 0.89 1.49 0.74 ND ND,0 of 18
KSSQSVLYESRNKNSVA,DASTRES,QQYHGLPLS,0.74 0.38 0.88 0.99 0.44 1.69,0 of 18
QSSQSFLYESRNKNSVA,WASTRES,QQYHRLHLS,1.31 ND ND ND ND ND,0 of 18
KYSQSVLYPSRNKNSVA,WASTRES,QQYHRDPES,ND 2.49 ND ND 4.33 ND,0 of 18
KLSQSVLYESRNKNSVA,WANTRES,QQYHRLVLC,0.77 1.09 ND 0.80 0.40 ND,0 of 18
KASQAVLYESRNKNSVA,EASTREV,QQYHRLPLS,-0.01 0.39 0.24 0.19 -0.06 0.06,0 of 18
KSSPINLYNSRNKNSVA,WASTRES,QQYHRLPLS,ND ND ND ND ND ND,0 of 18
KSTQSVLMEERNKNSVA,WASTRES,QQYHRLPLS,ND 1.53 1.28 ND ND ND,0 of 18

From the list, the first 2 with no signal in any replicate:

| CDR-L1 | CDR-L2 | CDR-L3 | log10 Kd, replicates | empty controls |
|---|---|---|---|---|
| KSSQSVLYESRMKNSVA | FASTRES | YQYHRLPLS | ND ND ND ND ND ND | 0 of 18 |
| KSSQSVLYESRNKNSVA | WSSTPES | QQYHRLPLS | ND ND ND ND ND ND | 0 of 18 |